Assay results from ChEMBL document CHEMBL1130107, “Discovery of CGS 27023A, a non-peptidic, potent, and orally active stromelysin inhibitor that blocks cartilage degradation in rabbits” (J Med Chem, 1997).

Protein sequences, listed by entry. Tags and fused reporters are not part of them. Lines headed by an entry give the natural chain unless they say otherwise; changes in a name come on top.
UniProt P08254: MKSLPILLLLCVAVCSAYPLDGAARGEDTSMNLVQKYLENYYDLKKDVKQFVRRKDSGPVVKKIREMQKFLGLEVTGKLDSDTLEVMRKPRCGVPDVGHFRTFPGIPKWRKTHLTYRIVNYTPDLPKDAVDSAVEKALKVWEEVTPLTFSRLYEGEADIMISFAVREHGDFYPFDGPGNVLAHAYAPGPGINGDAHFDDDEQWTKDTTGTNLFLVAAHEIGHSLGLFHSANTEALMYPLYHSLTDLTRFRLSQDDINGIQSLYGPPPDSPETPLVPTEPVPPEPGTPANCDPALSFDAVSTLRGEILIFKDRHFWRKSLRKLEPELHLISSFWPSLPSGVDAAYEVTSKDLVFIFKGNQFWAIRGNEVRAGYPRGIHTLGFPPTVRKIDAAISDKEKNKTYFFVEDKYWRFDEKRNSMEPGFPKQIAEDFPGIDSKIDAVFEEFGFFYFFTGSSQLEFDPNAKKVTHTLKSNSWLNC

Experiments:
Interstitial collagenase = target: T1, Interstitial collagenase (Homo sapiens, UniProt P03956); experiment: Inhibition of recombinant human collagenase, Matrix metalloprotease-1 (MMP-1)
T1 sequence (P03956 whole entry): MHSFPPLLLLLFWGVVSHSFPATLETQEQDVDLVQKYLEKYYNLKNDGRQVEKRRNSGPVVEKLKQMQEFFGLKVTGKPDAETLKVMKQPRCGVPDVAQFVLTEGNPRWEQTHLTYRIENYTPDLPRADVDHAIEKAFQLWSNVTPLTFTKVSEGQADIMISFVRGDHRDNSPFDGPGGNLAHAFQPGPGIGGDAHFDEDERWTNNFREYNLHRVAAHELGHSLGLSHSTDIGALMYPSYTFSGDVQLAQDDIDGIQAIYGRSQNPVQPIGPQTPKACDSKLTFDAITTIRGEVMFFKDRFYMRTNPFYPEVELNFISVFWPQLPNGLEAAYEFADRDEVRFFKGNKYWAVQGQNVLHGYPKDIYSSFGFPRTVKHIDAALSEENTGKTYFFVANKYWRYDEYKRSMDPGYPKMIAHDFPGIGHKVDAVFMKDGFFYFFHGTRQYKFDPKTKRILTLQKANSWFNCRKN

Stromelysin-1 = Stromelysin-1 (Homo sapiens, UniProt P08254); experiment: Inhibition activity against recombinant human stromelysin (Matrix metalloprotease-3)

Row | Structure (SMILES) | pKi (Interstitial collagenase) | pKi (Stromelysin-1)
1 | COc1ccc(S(=O)(=O)N(Cc2cccnc2)[C@@H](C(=O)NO)C(C)C)cc1 [CGS-27023A] | 7.48 | 
2 | COc1ccc(S(=O)(=O)N(CC(=O)NO)CC(C)C)cc1 |  | 6.88

pKi: −log10 of the molar value.
